# Apparent affinities of Ab-14 variants for a coronavirus HR2 peptide

The measurements come from Li et al. 2023 (doi:10.1038/s41467-023-39022-2) through the FLAb antibody collection.

Target peptide (SARS-CoV-2 spike, HR2 region): PDVDLGDISGINAS

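The parent was found by panning a naive human phage display library on the peptide. Designed CDR sequences, proposed from the first random library and measured here. Several design methods are mixed in this list. The assay is AlphaSeq: two haploid yeast populations carry antibody and antigen on their surface. After mating in shaken culture at 30 °C for 16 h, diploids were selected and their barcode pairs sequenced. Each replicate has its own calibration line, from reference interactions of the BCL2 family. Mating was done six times.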

The variants keep the heavy chain, the linker and the frameworks of Ab-14 (scFv order VH, the linker GGGGSGGGGSGGGGS, VL).
VH: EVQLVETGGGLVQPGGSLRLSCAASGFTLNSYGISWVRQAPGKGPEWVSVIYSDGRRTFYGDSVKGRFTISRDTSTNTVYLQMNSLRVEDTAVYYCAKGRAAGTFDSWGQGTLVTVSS
VL: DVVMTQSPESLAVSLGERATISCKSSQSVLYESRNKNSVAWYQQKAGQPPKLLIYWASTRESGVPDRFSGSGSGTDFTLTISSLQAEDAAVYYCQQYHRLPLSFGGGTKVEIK

The parent's light chain CDRs are KSSQSVLYESRNKNSVA, WASTRES, QQYHRLPLS; each variant's own CDRs replace them letter for letter.
Values are log10 of the apparent Kd in nM; lower means stronger binding.
A mean of the replicates is given; it leaves out those without a signal.
Where no diploid with the target was found in any replicate, the entry reads "no signal": below detection, most likely a poor binder, though not proof of it.
Nonspecific signal, from three strains lacking the peptide, appeared in 4% of pairings of all light chain designs, centred on 2.64 (5% of these signals below 1.59); values are not corrected for it. For each scFv, signals with the empty controls are counted beside the result.
In the paper, a design with two or fewer of six values counts as a poor binder.
The parent sequence was in this pool as ten entries: three were never detected, three once, and four in most replicates, with averages from 0.34 to 2.37.
The range of this assay differs from that of the first round, and the authors advise against merging the two.

CDR-L1,CDR-L2,CDR-L3,mean log10 Kd (nM),replicates with signal,empty controls
QLLMATMYGTYNRNSVA,HAETRED,QSYHRLPLS,2.12,5/6,1/18
KSSQSTLYESRNKNSVA,TASTRES,QQYHRLPLS,0.83,6/6,0/18
TLGDVTRMESNKKSSIA,DMSNRAA,QQYHRLPIS,0.71,6/6,0/18
KVSQSDPYESRNKNSVA,NASTRES,QQYHRLPLS,0.22,6/6,1/18
KISMTYRYESQASNSIA,EMTTRAE,QSYHRLPLA,1.25,5/6,0/18
VLAMGSYQKYRHENNIA,EANMRAQ,QQYNRLPFQ,-0.02,6/6,1/18
KVSQSQLYESRNKNSVA,NASTRES,QQYHRLPLS,0.14,6/6,0/18
KSRQSVLYESCNKNSVA,WASTRES,QQYHRLPLS,no signal,0/6,0/18
MFSQMLAIGHKAKNSVA,QASMRFN,QQYDRLPLI,2.47,2/6,1/18
RIQMGDLEGRTAWNNIA,NMEESYR,QQYVRLPLY,0.37,6/6,0/18
KLSMSELYESRNKNSVA,NASQRES,QQYHRLPLS,0.01,6/6,0/18
SIYDATKMESRNKNPIA,DVSTRPS,QQYDRLPLS,0.84,6/6,1/18
KSSISKLYESRNTNSVA,EASTRES,QQYHRLPLS,0.81,6/6,0/18
KLYQSWLYESRNKNSVA,NASTRMS,QQYHRLPLS,0.09,6/6,0/18
KVSQLDNGESRNHNSVA,HASTRSS,QQYHRLPLS,0.14,6/6,0/18
KLSQSWLYESRNWNNVA,NASTRES,QQYHRLPLS,-0.31,6/6,1/18
KSSISYEYESMNKNSVA,NGSTRES,QQYHRLPLS,1.22,4/6,1/18
KQSQSVLYELRNKRSVA,DASTRES,QQYHRLPLS,0.61,6/6,0/18
KLQQSVLYESRNKNSVA,NASTREE,QQYHRLPLS,0.26,6/6,0/18
TISQMFLGESRNRNSVA,QASTREE,QSYDRLPLS,0.84,6/6,0/18
KLSGSHLYESRNKNSVA,EASTRES,QQYHRLPLS,-0.31,6/6,0/18
KLMQEMLYESRMDNSVA,NASQREE,QQYHRLPLS,0.66,6/6,1/18
KLRQSTLYESRNKNSVA,MASTRES,QQYHRLPLS,0.84,6/6,0/18
KLSQVTHSESRNKNSIA,EMVCREV,QQYDRLPLS,2.14,2/6,0/18
KLQFSWLYESRNKNSVA,NASTRES,QQYHRLPLS,-0.11,6/6,0/18
KISQMARVGSTHGNSIA,EEATRCD,QQYHRLPLS,0.50,6/6,1/18
KSSWSVAQESRNGNSVA,WASTRES,QQYHNLPLS,no signal,0/6,0/18
QFHSTMAGDQRNVHSIA,NATWAVP,QQYFRLPLS,0.39,6/6,0/18
KLSQSVWYESRNKNSVA,SASTRES,QQYHRLPLS,0.01,6/6,0/18
HLGLATMLEETRVNSVA,NNSTRED,QQYDRLPLS,2.00,1/6,0/18
KSSQSWLYESRNKNSVA,GNSTRES,QQYHRLWLS,no signal,0/6,0/18
KLRQSQLYESRNQNSVA,NASTRES,QQYHRLPLS,-0.26,6/6,0/18
KIGMTLNQLMHKKNNVA,DLVTREQ,QQYFRLPLS,0.49,6/6,1/18
KLQYSVLYGSRNKNSVA,NASTRLQ,QQYHRLPLS,0.72,6/6,0/18
TISYSALMTGLNRNSVA,QAEERLT,QQYHRLPLS,1.62,6/6,0/18
NLNTYYYGGTLNTDNIA,HGNMVEA,QQYDRLPLQ,0.51,6/6,2/18
KSSQSVRYESRNKNSVA,DASTRES,QQYRRLPLM,0.21,6/6,1/18
KLYQSEGYESRNDNNVA,NASLRES,QQYHRLPLS,-0.27,6/6,2/18

The remaining entries, values ahead:

mean log10 Kd (nM),replicates with signal,empty controls,CDR-L1,CDR-L2,CDR-L3
0.29,6/6,0/18,KLSKSVMYESRMKNSVA,MASTRYE,QQYHRLPLS
1.81,6/6,2/18,HITMGMYVMGRHNSSIA,QAEERAK,QQYDRLPLI
1.45,4/6,0/18,TISQVMNTLTRHGNNVA,DLTEREV,QQYFRLPLS
1.35,5/6,1/18,NIVGRAVMQYSGRNAIA,NAHARCT,QQYFRLPLT
1.59,6/6,1/18,KLMNSLDAFHSWEDNIA,NTEIKVA,QQYYHLPLT
1.28,6/6,0/18,KSQQSDLYESRNKNSVA,WASTRVS,QQYKRLPLS
1.08,6/6,1/18,KSSQSVLKESRNKNSVA,GASTRES,QQYHRLPLS
1.09,6/6,4/18,MLSDLVHMGVRNTNSVA,DNSTRGS,QQYDRLPLS
-0.07,6/6,1/18,MISDLTMYGSRNKNSVA,DLSTRGS,QQYFRLPLS
0.56,6/6,0/18,KISQNMGETQRQKNSVA,EVSTVPS,QQYWRLPLS
0.14,6/6,0/18,KLSQSHLYESRNKNSVA,DASTRLS,QQYHRLPLS
0.58,6/6,0/18,KSSISYLYESRNKNSYA,EASTRES,QQYHRLPLS
0.11,6/6,0/18,KIGATLNFLEHKQNNVA,DLVTREN,QQYHRLPLS
0.43,6/6,0/18,KISQSVLMEWRNKNSVA,DASTRES,QQYHRLPLS
no signal,0/6,0/18,KSSHSVLYESRNKNSVA,WASTRES,QAYHRLPLS
0.35,6/6,0/18,TIGAMLRYGSRNKNNVA,EVSERLN,QQYDRLPLL
2.04,1/6,0/18,YSSDSVLYESRNKNSVA,WASTRES,QTYHRLPLS
1.84,6/6,1/18,KIGDMVHTLSRNKNSIA,DMRTRES,QQYYRLPLS
no signal,0/6,1/18,KSKQSVLYESRNKNSVA,WASTRES,GQYHRGPLS
0.19,6/6,0/18,QLQYDPGESLRSTHSIA,DVNIKDM,QQYARLPLA
no signal,0/6,0/18,KHSQSVLYESRNKNSVA,AANTREN,QQPHRLPLS
0.92,6/6,0/18,KLEQSQLYGSRNKNSVA,NASQRER,QQYHRLPLS
0.73,6/6,0/18,KIDISELGVSRNKNSVA,NASTRME,QQYHRLPLS
-0.15,6/6,1/18,KMSQSQLYEWRNKNSVA,NASTRES,QQYHRLPLT
-0.36,6/6,0/18,KLSQSFLYESRNKNNVA,EASTRES,QQYHRLPLS
0.79,6/6,1/18,TISQVMNTMTRHGNNVA,DLENRED,QQYFRLPLS
-0.11,6/6,0/18,QIYQAMHTLSQMKDNVA,DVQERGD,QQYFRLPLS
0.13,6/6,2/18,KLGNQEQMEGMLTQNVA,AMNTVVD,QEYHRLPLI
0.90,6/6,2/18,KSGQSFLQESRNKNSVA,HASMRES,QQYHRLPLS
0.60,6/6,0/18,QLGDNQVGETLMQDAIA,HDALRAD,QQYFRLPLL
1.58,6/6,0/18,KSSQSVLYESRNNNSVA,SASTRES,QQYHRLPLS
1.90,6/6,3/18,MISQLYNMGQFAINSVA,QASERNV,QQYDRLPLT
1.73,6/6,0/18,NVHALMNHSSDLMQSIA,DEECRDA,QQYERLPLS
0.24,6/6,0/18,IISQWKLGEWRNKNSVA,DASQRES,QQYHRLPLS
0.43,6/6,0/18,RLNVFQNVSTQGNNSIA,GAEQKVH,QQYMRLPLY
1.88,5/6,2/18,KITGMWTFESHNRSNIA,EESTRED,QSYHRLPLS
0.65,6/6,0/18,KWDQEVDGQSRNKNSVA,QASTREW,QQYHRLPLS
-0.08,6/6,1/18,KLPQSWLYESRNKNSVA,NASQRES,QDYHRLPLS